Laboratory results reported in patent US10471030B2, “Immunomodulatory and differentiating function selective retinoid and rexinoid compounds in combination with immune modulators for cancer immunotherapy” (Io Therapeutics, Inc., priority 2017, dated 2019).

Test system: CYP26A1
Experiment: stromal CYP26A1 expression in BM stromal cells (qRT-PCR)
Type: cell-based
Conditions: soluble factors tested
Method: For Transwell experiments, 6-well plates were coated with 0.1% gelatin in PBS for 30 min at 37° C. The gelatin solution was removed, and the stromal cells were cultured overnight in FBMD1 media at a density of 10×10^4 cells/well in 2 ml of media to obtain a confluent monolayer. At that time, Transwell inserts (Corning) were placed over the stroma cultures, and MM cell lines (1×10^6 in 1 ml) were seeded in the Transwell for 24 hr at 37° C. Following this incubation, Transwell and MM cells were removed, and stromal cells were detached from the wells and analyzed by qRT-PCR for CYP26 expression.
Total RNA was extracted using the RNeasy Mini Kit (QIAGEN) according to the manufacturer's instructions. cDNA was synthesized by reverse transcription using the iScript cDNA Synthesis Kit (Bio-Rad). qRT-PCR was performed with iTaq SYBR Green Supermix (Bio-Rad) using sequence specific primers. Gene expression was normalized to GAPDH, and relative quantification was calculated using ΔΔCt. All experiments were performed in duplicate and run on the Bio-Rad CFX96 machine.
Thus, it was determined whether MM cells reinforce a protective microenvironment by strengthening the ability of BM stroma to inactivate retinoids. Stromal CYP26 expression was analyzed by qRT-PCR in BM mesenchymal cells following a 24-hr coculture with MM cells. […]

B1: IL-3: cytokine, soluble factor tested (protein, UniProt P08700 20-152, looked up)
Interleukin-3: APMTQTTPLKTSWVNCSNMIDEIITHLKQPPLPLLDFNNLNGEDQDILMENNLRRPNLEAFNRAVKSLQNASAIESILKNLLPCLPLATAAPTRHPIHIKDGDWNEFRRKLTFYLKTLENAQAQQTTLSLAIF
  CYP26A1 expression on BM stromal cells: no significant effects
